Measured values from US20220184176A1.

Biological target: human DNM2 (recombinant, produced in Sf9 insect cells with the baculovirus system) (human) (UniProt P50570)
Assay: cell-based or functional assay

Substance: GST-BIN1 (recombinant human BIN1, full length isoform 8, with GST tag, produced in E. coli) (from UniProt O00499 2-593)
- mean liposome diameter after incubation with DNM2+GTP and BIN1: 108
